{"source": "paper PMC3395807", "about": "(Journal of Medicinal Chemistry, 2012)", "conditions": "10% Solutol HS15 solution in PBS, shaking at 37 °C for 6 hours"}
{"molecule": "OC[C@@H]1[C@@H](O)[C@H](O)[C@@H](O)CN1CCCCCCOc1cc(F)ccc1F", "note": "[Compound 3l, (2R,3R,4R,5S)-1-(6-(2,5-Difluorophenoxy)hexyl)-2-(hydroxymethyl)piperidine-3,4,5-triol]", "values": [{"measurement": "concentration of clear solution", "value": 20000, "unit": "µM"}]}
